Our source for the IC50 values is ChEMBL document CHEMBL1124100, “Structure-activity profile of a series of novel triazoloquinazoline adenosine antagonists” (J Med Chem, 1988).

For this experiment, the species on record is Cavia porcellus. In words: In vitro inhibition of adenylate cyclase activity of synaptoneurosomes from guinea pig cerebral cortex. The format is functional.

By IC50 is commonly meant the concentration that gives 50% inhibition. Read a low IC50 as higher potency. With `CS(=O)(=O)O.Nc1nc2ccc(Cl)cc2c2nc(-c3ccco3)nn12`, half-maximal inhibition (IC50) was put at 20 nM.
